Data taken from US20220387549A1 (BEIJING LEPU PHARMACEUTICAL TECHNOLOGY CO. , LTD, priority 2019, published 2022).

assay: Preliminary determination of pharmacokinetic properties in SD rats; format: in vivo; conditions: both sexes, rat, subcutaneous (SC) administration, 1 mg/kg, plasma by LC/MS
Experimental: Each compound was tested in two administration groups.
Tail vein intravenous injection group: The dose was 1 mg/kg. Blood samples were collected from the orbital vein of the rats before administration (0 h) and 30 min, 1 h, 2 h, 4 h, 8 h, 24 h, 48 h, 96 h, and 144 h after administration. Plasma samples were collected after centrifugation.
Subcutaneous administration group: The dose was 1 mg/kg. Blood samples were collected from the orbital vein of the rats before administration (0 h) and 1 h, 2 h, 3 h, 4 h, 8 h, 24 h, 48 h, 96 h, and 144 h after administration. Plasma samples were collected after centrifugation.
The concentrations of the corresponding compounds in the plasma samples from SD rats were determined by LC/MS.

Row | Structure (SMILES) | half-life [min]
1 | C/C=C(\NC(=O)[C@@H](N)Cc1c[nH]cn1)C(=O)N[C@@H](CCC(=O)O)C(=O)NCC(=O)N[C@H](C(=O)N[C@@H](Cc1ccccc1)C(=O)N[C@H](C(=O)N[C@@H](CO)C(=O)N[C@@H](CC(=O)O)C(=O)N[C@H](C(=O)N[C@@H](CO)C(=O)N[C@@H](CO)C(=O)N[C@@H](Cc1ccc(O)cc1)C(=O)N[C@@H](CC(C)C)C(=O)N[C@@H](CCC(=O)O)C(=O)NCC(=O)N[C@@H](CCC(N)=O)C(=O)N[C@@H](C)C(=O)N[C@@H](C)C(=O)N[C@@H](CCCCNC(=O)COCCOCCOCCOCCOCCNC(=O)CC[C@H](NC(=O)CCCCCCCCCCCCCCCCC(=O)O)C(=O)O)C(=O)N[C@@H](CCC(=O)O)C(=O)N[C@@H](Cc1ccccc1)C(=O)N[C@H](C(=O)N[C@@H](C)C(=O)N[C@@H](Cc1c[nH]c2ccccc12)C(=O)N[C@@H](CC(C)C)C(=O)N[C@H](C(=O)N[C@@H](CCCNC(=N)N)C(=O)NCC(=O)N[C@@H](CCCNC(=N)N)C(=O)NCC(N)=O)C(C)C)[C@@H](C)CC)C(C)C)[C@@H](C)O)[C@@H](C)O [Compound 3] | 534
2 | C/C=C(\NC(=O)[C@@H](N)Cc1c[nH]cn1)C(=O)N[C@@H](CCC(=O)O)C(=O)NCC(=O)N[C@H](C(=O)N[C@@H](Cc1ccccc1)C(=O)N[C@H](C(=O)N[C@@H](CO)C(=O)N[C@@H](CC(=O)O)C(=O)N[C@H](C(=O)N[C@@H](CO)C(=O)N[C@@H](CO)C(=O)N[C@@H](Cc1ccc(O)cc1)C(=O)N[C@@H](CC(C)C)C(=O)N[C@@H](CCC(=O)O)C(=O)NCC(=O)N[C@@H](CCC(N)=O)C(=O)N[C@@H](C)C(=O)N[C@@H](C)C(=O)N[C@@H](CCCCNC(=O)COCCOCCNC(=O)COCCOCCNC(=O)CC[C@H](NC(=O)CCCCCCCCCCCCCCCCC(=O)O)C(=O)O)C(=O)N[C@@H](CCC(=O)O)C(=O)N[C@@H](Cc1ccccc1)C(=O)N[C@H](C(=O)N[C@@H](C)C(=O)N[C@@H](Cc1c[nH]c2ccccc12)C(=O)N[C@@H](CC(C)C)C(=O)N[C@H](C(=O)N[C@@H](CCCNC(=N)N)C(=O)NCC(=O)N[C@@H](CCCNC(=N)N)C(=O)NCC(N)=O)C(C)C)[C@@H](C)CC)C(C)C)[C@@H](C)O)[C@@H](C)O [Compound 1] | 570
3 | CC[C@H](C)[C@H](NC(=O)[C@H](Cc1ccccc1)NC(=O)[C@H](CCC(=O)O)NC(=O)[C@H](CCCCNC(=O)COCCOCCOCCOCCOCCNC(=O)CC[C@H](NC(=O)CCCCCCCCCCCCCCCCC(=O)O)C(=O)O)NC(=O)[C@H](C)NC(=O)[C@H](C)NC(=O)[C@H](CCC(N)=O)NC(=O)CNC(=O)[C@H](CCC(=O)O)NC(=O)[C@H](CC(C)C)NC(=O)[C@H](Cc1ccc(O)cc1)NC(=O)[C@H](CO)NC(=O)[C@H](CO)NC(=O)[C@@H](NC(=O)[C@H](CC(=O)O)NC(=O)[C@H](CO)NC(=O)[C@@H](NC(=O)[C@H](Cc1ccccc1)NC(=O)[C@@H](NC(=O)CNC(=O)[C@H](CCC(=O)O)NC(=O)C(NC(=O)[C@@H](N)Cc1c[nH]cn1)=C(C)C)[C@@H](C)O)[C@@H](C)O)C(C)C)C(=O)N[C@@H](C)C(=O)N[C@@H](Cc1c[nH]c2ccccc12)C(=O)N[C@@H](CC(C)C)C(=O)N[C@H](C(=O)N[C@@H](CCCNC(=N)N)C(=O)NCC(=O)N[C@@H](CCCNC(=N)N)C(=O)NCC(N)=O)C(C)C [Compound 4] | 582
